Converted amounts (≈) assume the structure as drawn. Counter-ions that a name gives are not always drawn. Like-named read-outs stand apart in the source and are kept apart here.
What was measured:
[1] = test system: B. fragilis A20926; experiment: Localized infection with B. fragilis in mice; format: in vivo; conditions: Bacteroides fragilis, once daily for 5 days, log-probit plot
[2] = test system: Bacteroides fragilis A20926; experiment: microbe, parasite or virus in culture
[3] = A20926, 144 h, oral, read-out: po PD50
[4] = A20926, sc, 144 h, subcutaneous, read-out: sc PD50

Structure (SMILES) | ED50 [1, 3] [mg/kg] | ED50 [1, 4] [mg/kg] | MIC [2] [µg/mL]
Cc1ncc([N+](=O)[O-])n1CCO [Flagyl] | 50 | 35 | 
COC(=O)C1C(C)OC2(C)CC(=O)C3OC12OC(C(C)/C=C(C)/C=C/C(=O)C1=C(O)CNC1=O)C3C (stereo not drawn) [Bu-2313B (Na salt)] | ~220 | 60 | 
CCC[C@@H]1C[C@@H](C(=O)N[C@@H]([C@H]2O[C@H](SC)[C@H](O)[C@@H](O)[C@H]2O)[C@H](C)Cl)N(C)C1 [Clindamycin] |  |  | 0.05 (≈ 0.118 µM)
COC(=O)C1C(C)OC2(C)CC(=O)C3OC12OC(C(C)/C=C(C)/C=C/C(=O)C1=C(O)CN(C)C1=O)C3C (stereo not drawn) [Bu-2313A] |  |  | 0.2 (≈ 0.386 µM)

— patent publication US4169096A, “Antibiotic compounds” (priority 1977, dated 1979)
